# Source: PubChem BioAssay AID580 (SRMLSC, 2007)
# This is a selection; strong and weak results do not stand in their true shares. Calls of active or inactive are those of the source.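 How the source made its calls: active means viability at or under a set limit in both replicates, limit being median viability minus 3 SD (cut at about 48% in these data, passing the limit was not always enough); inconclusive means at or under the limit in just one replicate; inactive means at or above the limit in both replicates.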
# Assay: growth inhibitors of H69AR lung tumor, primary screen, human, duplicate replicates (AID 580);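 further: 100% = mean luminescence of untreated wells and 0% = no signal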
# Conditions: H69AR lung tumor cells viability, ATP luminescence, 72 h; at 10 µM; hits give low values
row,SMILES,viability
1,Fc1ccccc1NC1CCN(Cc2ccccc2)CC1,inactive: 85.8%
